Structures are written as SMILES. Structures can show the parent of a compound that is named as a salt.

Chains of the proteins cited; added tags and fusions are not shown. Lines headed by an entry give the natural chain unless they say otherwise; changes in a name come on top. Residues count along the entry.
UniProt P07333, 20-972: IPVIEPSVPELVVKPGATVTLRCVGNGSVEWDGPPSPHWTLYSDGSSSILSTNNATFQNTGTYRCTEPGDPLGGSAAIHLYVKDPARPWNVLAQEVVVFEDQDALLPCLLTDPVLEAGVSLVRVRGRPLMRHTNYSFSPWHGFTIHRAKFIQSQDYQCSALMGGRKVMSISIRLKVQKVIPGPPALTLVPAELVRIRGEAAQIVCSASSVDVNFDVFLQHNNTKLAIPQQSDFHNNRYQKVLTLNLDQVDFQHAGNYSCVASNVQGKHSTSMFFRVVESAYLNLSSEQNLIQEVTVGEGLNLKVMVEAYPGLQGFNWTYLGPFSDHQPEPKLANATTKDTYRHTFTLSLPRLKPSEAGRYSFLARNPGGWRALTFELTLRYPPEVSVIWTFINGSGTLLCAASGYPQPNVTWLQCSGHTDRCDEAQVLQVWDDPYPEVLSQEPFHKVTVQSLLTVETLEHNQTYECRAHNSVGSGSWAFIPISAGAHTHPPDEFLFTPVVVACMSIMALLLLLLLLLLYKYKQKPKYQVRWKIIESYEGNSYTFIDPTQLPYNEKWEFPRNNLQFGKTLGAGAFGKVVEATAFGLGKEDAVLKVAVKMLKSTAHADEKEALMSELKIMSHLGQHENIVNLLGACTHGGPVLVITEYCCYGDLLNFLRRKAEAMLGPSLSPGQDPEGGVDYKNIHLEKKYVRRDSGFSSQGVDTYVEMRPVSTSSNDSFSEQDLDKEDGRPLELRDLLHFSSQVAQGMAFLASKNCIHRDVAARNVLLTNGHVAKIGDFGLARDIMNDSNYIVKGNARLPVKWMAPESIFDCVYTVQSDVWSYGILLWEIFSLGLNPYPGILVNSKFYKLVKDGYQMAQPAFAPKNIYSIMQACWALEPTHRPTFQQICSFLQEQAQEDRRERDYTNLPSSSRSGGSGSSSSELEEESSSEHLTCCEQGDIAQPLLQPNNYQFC
UniProt P11802: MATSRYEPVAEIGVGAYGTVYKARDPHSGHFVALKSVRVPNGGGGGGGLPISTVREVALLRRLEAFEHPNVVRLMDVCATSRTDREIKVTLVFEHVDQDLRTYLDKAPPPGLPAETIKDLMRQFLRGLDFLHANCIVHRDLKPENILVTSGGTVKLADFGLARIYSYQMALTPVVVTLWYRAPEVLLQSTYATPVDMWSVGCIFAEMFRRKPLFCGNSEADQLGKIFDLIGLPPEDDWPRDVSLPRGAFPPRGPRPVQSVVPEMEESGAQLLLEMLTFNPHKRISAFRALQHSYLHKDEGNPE

The text below walks through data of patent publication US11174252B2, “Heterocyclic compounds as kinase inhibitors” (priority 2018, dated 2021).

Holding throughout (type): biochemical
One assay concerns the target FMS kinase (Homo sapiens (Human), UniProt P07333). Description: LanthaScreen kinase assay (ATP, fluorescent-PolyGT substrate, TR-FRET).
In the next assay the target is CDK4 (Homo sapiens (Human), UniProt P11802). Description: In vitro kinase inhibition, luminescence (ADP-Glo) with retinoblastoma substrate.
For a further assay, the target named is CDK6 (Homo sapiens (Human), UniProt Q00534). Description: biochemical. The note with it: read-out: CDK6 IC50.

In the case of `CC(C)N1CCOc2c(F)cc(-c3nc(Nc4ccc5c(c4)CC(N(C)C)C5)ncc3F)cc21` (stereo not drawn) [Compound 37, N^5-(5-fluoro-4-(8-fluoro-4-isopropyl-3,4-dihydro-2H-benzo[b][1,4]oxazin-6-yl)pyrimidin-2-yl)-N^2,N^2-dimethyl-2,3-dihydro-1H-indene-2,5-diamine], the figures for the half-maximal inhibitory concentration (IC50) at FMS kinase, at CDK4 and on CDK6 were 18 nM, 6.5 nM and 3.5 nM, respectively.

For the compound `CC(C)N1CCOc2c(F)cc(-c3nc(Nc4cccc5c4CCNC5)ncc3F)cc21` [Compound 15, N-(5-fluoro-4-(8-fluoro-4-isopropyl-3,4-dihydro-2H-benzo[b][1,4]oxazin-6-yl)pyrimidin-2-yl)-1,2,3,4-tetrahydroisoquinolin-5-amine], the IC50 at CDK4 was determined as 37 nM; on CDK6, 30 nM.

In the case of `CC(C)N1CCc2cc(Nc3ncc(F)c(-c4cc(F)c5c(c4)N(C(C)C)CCO5)n3)ccc2C1` [Compound 22, N-(5-fluoro-4-(8-fluoro-4-isopropyl-3,4-dihydro-2H-benzo[b][1,4]oxazin-6-yl)pyrimidin-2-yl)-2-isopropyl-1,2,3,4-tetrahydroisoquinolin-6-amine], the concentration for half-maximal inhibition (IC50) on CDK4 and at CDK6 was 2 nM each time.

Regarding `CC(C)N1CCOc2c(F)cc(-c3nc(Nc4ccc(N5CCCNCC5)cn4)ncc3F)cc21` [Compound 477, N-(5-(1,4-diazepan-1-yl)pyridin-2-yl)-5-fluoro-4-(8-fluoro-4-isopropyl-3,4-dihydro-2H-benzo[b][1,4]oxazin-6-yl)pyrimidin-2-amine], the half-maximal inhibitory concentration (IC50) on CDK4 was found to be 3.5 nM; at CDK6, 4.5 nM.

For the compound `CC(C)N1CCOc2c(F)cc(-c3nc(Nc4ccc5c(c4)CNCC5)ncc3F)cc21` [Compound 16, N-(5-fluoro-4-(8-fluoro-4-isopropyl-3,4-dihydro-2H-benzo[b][1,4]oxazin-6-yl)pyrimidin-2-yl)-1,2,3,4-tetrahydroisoquinolin-7-amine], the IC50 against CDK4 and on CDK6 was 1 nM throughout.

As to `CC(C)N1CCOc2c(F)cc(-c3nc(Nc4ccc(C5CCNCC5)c(F)c4)ncc3F)cc21` [Compound 18, 5-fluoro-N-(3-fluoro-4-(piperidin-4-yl)phenyl)-4-(8-fluoro-4-isopropyl-3,4-dihydro-2H-benzo[b][1,4]oxazin-6-yl) pyrimidin-2-amine], the IC50 against CDK4 turned out to be 10 nM; at CDK6, 15 nM.

Turning to `CC(C)N1CCc2ccc(Nc3ncc(F)c(-c4cc(F)c5c(c4)N(C(C)C)CCO5)n3)cc2C1` [Compound 19, N-(5-fluoro-4-(8-fluoro-4-isopropyl-3,4-dihydro-2H-benzo[b][1,4]oxazin-6-yl)pyrimidin-2-yl)-2-isopropyl-1,2,3,4-tetrahydroisoquinolin-7-amine], the half-maximal inhibitory concentration (IC50) on CDK4 and on CDK6 was 1 nM each time.

Take `CC(C)N1CCOc2c(F)cc(-c3nc(Nc4ccc(N5CCN(CCO)CC5)cn4)ncc3F)cc21` [Compound 490, 2-(4-(6-((5-fluoro-4-(8-fluoro-4-isopropyl-3,4-dihydro-2H-benzo[b][1,4]oxazin-6-yl)pyrimidin-2-yl)amino)pyridin-3-yl)piperazin-1-yl)ethan-1-ol]: the concentration for half-maximal inhibition (IC50) at CDK4 is 2 nM; at CDK6, 9.5 nM.

Regarding `CC(C)N1CCc2c(cccc2Nc2ncc(F)c(-c3cc(F)c4c(c3)N(C(C)C)CCO4)n2)C1` [Compound 20, N-(5-fluoro-4-(8-fluoro-4-isopropyl-3,4-dihydro-2H-benzo[b][1,4]oxazin-6-yl)pyrimidin-2-yl)-2-isopropyl-, 2,3,4-tetrahydroisoquinolin-5-amine], the 50% inhibitory concentration (IC50) was 95 nM against CDK4 and 187 nM at CDK6.

Take `CC(C)N1CCOc2c(F)cc(-c3nc(Nc4ccc(N5CCNCC5)c(F)c4)ncc3F)cc21` [Compound 12, 5-fluoro-N-(3-fluoro-4-(piperazin-1-yl)phenyl)-4-(8-fluoro-4-isopropyl-3,4-dihydro-2H-benzo[b][1,4]oxazin-6-yl)pyrimidin-2-amine hydrochloride]: the half-maximal inhibitory concentration (IC50) against CDK4 turned out to be 12 nM; on CDK6, 2 nM.

For the compound `CC(C)N1CCOc2c(F)cc(-c3nc(Nc4cc(C5CCN(C)CC5)no4)ncc3F)cc21` [Compound 495, N-(5-fluoro-4-(8-fluoro-4-isopropyl-3,4-dihydro-2H-benzo[b][1,4]oxazin-6-yl)pyrimidin-2-yl)-3-(1-methylpiperidin-4-yl)isoxazol-5-amine], the half-inhibitory concentration (IC50) against CDK4 amounted to 14 nM; on CDK6 it was 39 nM.

Take `CC(C)N1CCOc2c(F)cc(-c3nc(Nc4cc(F)c(N5CCNCC5)cc4F)ncc3F)cc21` [Compound 31, N-(2,5-difluoro-4-(piperazin-1-yl)phenyl)-5-fluoro-4-(8-fluoro-4-isopropyl-3,4-dihydro-2H-benzo[b][1,4]oxazin-6-yl)pyrimidin-2-amine]: the half-maximal inhibitory concentration (IC50) is 2.5 nM against CDK4 and 32 nM on CDK6.

As to `CC(C)N1CCOc2c(F)cc(-c3nc(Nc4ccc(N5CCC(CO)CC5)cn4)ncc3F)cc21` [Compound 485, (1-(6-((5-fluoro-4-(8-fluoro-4-isopropyl-3,4-dihydro-2H-benzo[b][1,4]oxazin-6-yl)pyrimidin-2-yl)amino)pyridin-3-yl)piperidin-4-yl)methanol], the 50% inhibitory concentration (IC50) against CDK4 is 7.5 nM; at CDK6 it was 22 nM.
